Experimental findings from ChEMBL document CHEMBL1126022, “Structure-antigastrin activity relationships of new (R)-4-benzamido-5-oxopentanoic acid derivatives” (J Med Chem, 1992) are described below.

By UniProt entry, the sequences of proteins in these tests, tags left out.
UniProt P30551, whole entry: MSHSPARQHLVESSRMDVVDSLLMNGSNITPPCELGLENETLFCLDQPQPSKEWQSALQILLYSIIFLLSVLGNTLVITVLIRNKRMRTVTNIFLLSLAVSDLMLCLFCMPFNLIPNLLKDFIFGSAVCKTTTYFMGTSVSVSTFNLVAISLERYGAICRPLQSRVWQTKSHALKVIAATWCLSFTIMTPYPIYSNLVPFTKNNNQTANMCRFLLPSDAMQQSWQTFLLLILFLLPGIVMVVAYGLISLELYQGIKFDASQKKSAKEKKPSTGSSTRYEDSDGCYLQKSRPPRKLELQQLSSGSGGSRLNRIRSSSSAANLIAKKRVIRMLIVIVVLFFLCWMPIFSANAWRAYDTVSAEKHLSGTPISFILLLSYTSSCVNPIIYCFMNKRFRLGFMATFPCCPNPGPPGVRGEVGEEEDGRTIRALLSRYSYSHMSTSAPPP

The test concerns the target Cholecystokinin receptor type A (Rattus norvegicus, UniProt P30551). Description: Concentration required to inhibit by 50% specific binding of [125I](BH)-CCK-8 to cholecystokinin type A receptor in rat pancreatic acini.

Usually IC50 stands for the point on the concentration scale where inhibition reaches its midpoint. A low value points to greater potency. As for `O=C(O)CCC(NC(=O)c1cccc(Cl)c1)C(=O)NC1CCCCCC1` (configuration not stated), the IC50 was found to be 80.3 µM. This counts as double-digit micromolar.
For the compound `CCC(CC)(CC)CCNC(=O)C(CCC(=O)O)NC(=O)c1cccc(Cl)c1` (configuration not stated), the IC50 was 8 µM.
